# Assay results taken from ChEMBL document CHEMBL1156750 (Bioorg Med Chem Lett, 2009).
# Columns and labels:
# Homo sapiens [1] = organism: Homo sapiens; assay: Selectivity for human coagulation factor 10a over human thrombin
# Homo sapiens [2] = organism: Homo sapiens; assay: Selectivity for human coagulation factor 10a over human t-PA
# Homo sapiens [3] = organism: Homo sapiens; assay: Selectivity for human coagulation factor 10a over human trypsin
# Homo sapiens [4] = organism: Homo sapiens; assay: Selectivity for human coagulation factor 10a over human Tryptase
structure (smiles),measurement,setting,value
Cc1cc2cc(N/C(=N\C(=O)c3ccc(C(=O)N(C)C)nc3)N[C@H]3CCCCN(CC(=O)N4CCCC4)C3=O)ccc2o1,fold change (FC),Homo sapiens [1],> 440
same,fold change (FC),Homo sapiens [2],> 100
same,fold change (FC),Homo sapiens [3],> 1500
same,fold change (FC),Homo sapiens [4],> 1500
